Earlier results on one compound are cited in US20170315126A1, “METHOD FOR SCREENING COMPOUND SPECIFICALLY SUPPRESSING FORMATION OF CAVEOLAE OF CANCER CELLS, SCREENING KIT, VECTOR AND TRANSFORMANT TO BE USED IN KIT, AND METHOD FOR SELECTING PATIENT FOR WHOM MOLECULARLY TARGETED DRUG IS INDICATED” (NATIONAL UNIVERSITY CORPORATION NAGOYA INSTITUTE OF …, priority 2014, published 2017).

Structures are written as SMILES. Where two headings read alike, the source gives them in different places.

In this data set the test system is A431 cells. Conditions: cited from earlier work.

As to `COc1cc2ncnc(Nc3ccc(F)c(Cl)c3)c2cc1OCCCN1CCOCC1` [gefitinib, Gefitinib], the “sensitivity of cells to EGFR-TKI” value (A431, no ligand) is reported as “sensitive” and the “sensitivity of cells to EGFR-TKI” value (A431 in the presence of IGF-I) is “resistance”.
